Molecular target: T1, COX-2 (Mus musculus, UniProt Q05769)
T1 construct: endogenous in cells
T1 sequence (Q05769 18-604): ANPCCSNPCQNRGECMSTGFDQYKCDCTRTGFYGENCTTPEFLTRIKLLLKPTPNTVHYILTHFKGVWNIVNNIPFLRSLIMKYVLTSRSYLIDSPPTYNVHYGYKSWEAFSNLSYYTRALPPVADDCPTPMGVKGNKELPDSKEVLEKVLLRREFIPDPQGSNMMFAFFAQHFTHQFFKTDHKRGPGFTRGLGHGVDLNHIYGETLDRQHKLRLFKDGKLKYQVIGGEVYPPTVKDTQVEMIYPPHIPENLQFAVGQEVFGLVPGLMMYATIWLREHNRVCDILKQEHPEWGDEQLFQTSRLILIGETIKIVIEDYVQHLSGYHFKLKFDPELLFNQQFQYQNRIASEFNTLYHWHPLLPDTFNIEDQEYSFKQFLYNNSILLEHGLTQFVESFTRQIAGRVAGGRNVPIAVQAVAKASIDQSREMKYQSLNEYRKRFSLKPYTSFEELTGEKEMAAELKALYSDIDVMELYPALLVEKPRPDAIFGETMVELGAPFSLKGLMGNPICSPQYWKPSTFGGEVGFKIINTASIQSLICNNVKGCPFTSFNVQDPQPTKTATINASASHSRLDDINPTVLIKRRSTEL
Test: Assay for the COX-2 inhibitory activity using RAW 264.7 cell line (PGE2 inhibition)
Type: cell-based
Conditions: RAW264.7, test compound 10 nM, RAW 264.7 cells, interferon + LPS induced, read-out: Cyclooxygenase (COX) Inhibition (%) COX-2 (10 nM)
Experimental: Each well was treated with 250 μM of aspirin and incubated at 37° C. for 2 hours. After the culture media were replaced with new culture media, the new culture media were treated with a test compound (10 nM) and incubated for 30 minutes. Then, each well was treated with interferon ? (100 units/ml) and lipopolysaccharide (LPS, 100 ng/ml) and incubated for 18 hours. The culture media were transferred to other test tubes. The concentration of PGE2 was quantified by means of the EIA kit (Cayman Chemicals).
The percentages of the COX inhibition were calculated according to the following equation:
% Inhibition=(concentration of PGE2 in test compound-untreated sample−concentration of PGE2 in test compound-treated sample) / (concentration of PGE2 in test compound-untreated sample)×100

Cc1onc(-c2ccccc2)c1-c1ccc(S(N)(=O)=O)cc1 [Reference (Valdecoxib), Valdecoxib, reference compound]
inhibition at 0.01 µM: 5.47%

— patent publication US6689805B2, “Pyrazole-3-one derivative, method for preparing the same, and pharmaceutical composition containing the same” (CJ Corp., priority 2002, dated 2004)
